Results: US20210355212A1 (NOVELTY NOBILITY, published 2021)

Sequences of proteins named here, by UniProt entry; tags and fusion partners are left off. A line that says so, or that is headed by a name, gives the form on record, which may keep a tag or linker.
UniProt P10721, other isoform, or with tags, fused parts or gaps limits assumed: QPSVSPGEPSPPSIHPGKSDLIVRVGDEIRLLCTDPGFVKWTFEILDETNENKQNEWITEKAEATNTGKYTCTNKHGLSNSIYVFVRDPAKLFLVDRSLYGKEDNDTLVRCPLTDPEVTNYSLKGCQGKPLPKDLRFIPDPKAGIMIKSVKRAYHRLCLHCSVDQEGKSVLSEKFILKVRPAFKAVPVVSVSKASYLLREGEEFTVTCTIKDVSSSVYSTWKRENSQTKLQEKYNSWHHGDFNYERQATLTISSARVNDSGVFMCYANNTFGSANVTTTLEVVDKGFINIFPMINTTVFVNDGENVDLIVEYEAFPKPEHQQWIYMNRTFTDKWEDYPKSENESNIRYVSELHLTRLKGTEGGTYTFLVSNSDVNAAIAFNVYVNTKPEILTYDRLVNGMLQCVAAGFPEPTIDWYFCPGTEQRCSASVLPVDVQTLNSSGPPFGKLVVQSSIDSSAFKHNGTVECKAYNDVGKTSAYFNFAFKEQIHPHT

Molecular target: T1, human C-KIT (elabscience, PKSH030939) (human, UniProt P10721-2 26-516, limits assumed)
T1 construct: Bought recombinant protein; also called recombinant C-KIT protein (cat #PKSH030939); C-KIT protein used as an antigen
Test: SPR (Reichert SR7500DC), C-KIT fixed on a PEG chip, 2G4 antibody flowed by concentration
Method: In order to confirm the C-KIT binding ability of the 2G4 antibody, SPR (Surface Plasmon Resonance) was performed. Using SR7500DC (Reichert, USA), 20 μg of human C-KIT (elabscience, PKSH030939) used for antibody preparation. 20 μg of mouse C-KIT (SB, Lot #LC05DE2304), and rat C-KIT (SB, Lot #LC06SE1787) 20 μg was fixed on a PEG (Reichert, USA) chip. Thereafter, after flowing 2G4 antibody by concentration, the KD value, which is the affinity for C-KIT, was analyzed using the Scrubber2 program. The KD value is obtained by dividing kd by ka, and the lower the value means the greater the binding ability to the target.

B1: 2G4 antibody (antibody, V domains shown)
VH: QVQLVESGGGVVQPGRSLRLSCAASGFTFSRYGMHWVRQAPGKGLEWVAVIWYDGTNKDYTDSVRGRFTISRDNSKNTLYLQMNSLRAEDTAVYYCAREDWAEAFDMWGQGTTVTVSS
VL: not shown
  Kd: ~2.82 pM
